Marks after values point to notes of the source that are not given here.
Test: Drug-drug interaction study, 2D regimen with warfarin
Assay type: in vivo, human healthy volunteers
Details: warfarin + 2D regimen, geometric mean (%CV)

SMILES	AUC (AUC∞), Coadministration
CC(=O)C[C@H](c1ccccc1)c1c(O)c2ccccc2oc1=O [R-Warfarin, R-warfarin]	16,700 (19)^b ng · h/ml
CC(=O)C[C@@H](c1ccccc1)c1c(O)c2ccccc2oc1=O [S-Warfarin, S-warfarin]	11,000 (33)^b ng · h/ml

Reference: publication PMC4704150 (Antimicrobial Agents and Chemotherapy, 2015)
